The source of these data is US20180015141A1.

For this test, the target named is CD44-IgG1Fc fusion protein (R & D systems) (human) (UniProt P16070). Put plainly: competition ELISA, CD44-IgG1Fc coated at 1 µg/mL, rhPRG4 at 5 µg/mL, competitor HMW HA or MMW HA (not a protein), detection with Mab 9G3. (In an ELISA, binding on a coated surface is turned into a signal by an enzyme label.)

“recombinant human proteoglycan 4 (rhPRG4) (from UniProt Q92954 25-1404) (ligand)” returned a percent reduction of binding with excess hyaluronic acid of 50%.
